Values of other authors in patent publication US20260001922A1, “PEPTIDES TARGETING SODIUM CHANNELS TO TREAT PAIN” (priority 2022, published 2026).

By UniProt entry, the sequences of proteins in these tests, tags left out.
UniProt Q14524, whole entry: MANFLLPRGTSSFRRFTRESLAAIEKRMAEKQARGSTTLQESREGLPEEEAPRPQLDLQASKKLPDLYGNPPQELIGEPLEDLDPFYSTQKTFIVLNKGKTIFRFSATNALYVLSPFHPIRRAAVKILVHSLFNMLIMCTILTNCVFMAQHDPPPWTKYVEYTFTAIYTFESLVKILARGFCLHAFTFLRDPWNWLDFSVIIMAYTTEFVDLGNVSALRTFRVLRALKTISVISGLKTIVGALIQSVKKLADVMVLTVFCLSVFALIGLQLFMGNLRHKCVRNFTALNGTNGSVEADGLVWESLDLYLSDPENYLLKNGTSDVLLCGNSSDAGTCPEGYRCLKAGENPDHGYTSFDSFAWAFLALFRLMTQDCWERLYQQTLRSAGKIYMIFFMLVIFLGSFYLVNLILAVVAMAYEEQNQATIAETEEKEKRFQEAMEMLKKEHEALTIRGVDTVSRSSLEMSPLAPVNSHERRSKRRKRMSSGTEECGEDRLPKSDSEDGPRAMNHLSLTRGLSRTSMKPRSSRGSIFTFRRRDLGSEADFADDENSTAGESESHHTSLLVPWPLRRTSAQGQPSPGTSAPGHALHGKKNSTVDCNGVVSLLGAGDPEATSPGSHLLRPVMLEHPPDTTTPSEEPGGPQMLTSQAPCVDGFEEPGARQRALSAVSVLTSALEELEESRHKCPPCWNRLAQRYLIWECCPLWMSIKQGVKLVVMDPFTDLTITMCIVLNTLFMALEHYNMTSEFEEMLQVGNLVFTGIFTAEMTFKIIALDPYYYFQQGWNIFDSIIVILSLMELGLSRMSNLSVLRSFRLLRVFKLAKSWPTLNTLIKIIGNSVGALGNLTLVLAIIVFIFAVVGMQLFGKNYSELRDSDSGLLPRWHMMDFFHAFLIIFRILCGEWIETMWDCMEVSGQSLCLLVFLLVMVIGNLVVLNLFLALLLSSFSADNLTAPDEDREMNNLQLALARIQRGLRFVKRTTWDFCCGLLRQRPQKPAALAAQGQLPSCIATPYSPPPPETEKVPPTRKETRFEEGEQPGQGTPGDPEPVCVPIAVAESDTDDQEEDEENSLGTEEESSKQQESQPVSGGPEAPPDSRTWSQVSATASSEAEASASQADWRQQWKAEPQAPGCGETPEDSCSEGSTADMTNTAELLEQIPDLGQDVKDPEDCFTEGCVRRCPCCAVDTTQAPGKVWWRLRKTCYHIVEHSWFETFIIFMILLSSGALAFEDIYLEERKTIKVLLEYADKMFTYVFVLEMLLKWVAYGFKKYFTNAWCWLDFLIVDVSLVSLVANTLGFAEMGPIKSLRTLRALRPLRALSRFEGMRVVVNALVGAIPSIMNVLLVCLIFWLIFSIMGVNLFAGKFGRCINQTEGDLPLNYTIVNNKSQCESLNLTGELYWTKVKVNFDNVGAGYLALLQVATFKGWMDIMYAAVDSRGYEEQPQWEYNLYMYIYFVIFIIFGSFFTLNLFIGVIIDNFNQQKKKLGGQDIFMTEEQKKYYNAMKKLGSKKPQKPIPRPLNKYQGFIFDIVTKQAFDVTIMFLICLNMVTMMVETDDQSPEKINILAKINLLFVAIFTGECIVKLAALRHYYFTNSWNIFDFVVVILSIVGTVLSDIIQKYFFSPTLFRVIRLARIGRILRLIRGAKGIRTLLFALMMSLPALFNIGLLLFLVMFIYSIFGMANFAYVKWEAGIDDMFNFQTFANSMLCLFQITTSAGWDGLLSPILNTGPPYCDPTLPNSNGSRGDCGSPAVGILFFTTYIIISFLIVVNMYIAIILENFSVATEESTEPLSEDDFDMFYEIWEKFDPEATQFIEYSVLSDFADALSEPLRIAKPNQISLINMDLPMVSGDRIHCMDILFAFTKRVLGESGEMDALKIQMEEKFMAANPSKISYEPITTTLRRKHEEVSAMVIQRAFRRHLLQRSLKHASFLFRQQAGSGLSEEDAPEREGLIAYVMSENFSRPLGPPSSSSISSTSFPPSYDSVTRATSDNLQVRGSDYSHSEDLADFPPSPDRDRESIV
UniProt P35499, whole entry: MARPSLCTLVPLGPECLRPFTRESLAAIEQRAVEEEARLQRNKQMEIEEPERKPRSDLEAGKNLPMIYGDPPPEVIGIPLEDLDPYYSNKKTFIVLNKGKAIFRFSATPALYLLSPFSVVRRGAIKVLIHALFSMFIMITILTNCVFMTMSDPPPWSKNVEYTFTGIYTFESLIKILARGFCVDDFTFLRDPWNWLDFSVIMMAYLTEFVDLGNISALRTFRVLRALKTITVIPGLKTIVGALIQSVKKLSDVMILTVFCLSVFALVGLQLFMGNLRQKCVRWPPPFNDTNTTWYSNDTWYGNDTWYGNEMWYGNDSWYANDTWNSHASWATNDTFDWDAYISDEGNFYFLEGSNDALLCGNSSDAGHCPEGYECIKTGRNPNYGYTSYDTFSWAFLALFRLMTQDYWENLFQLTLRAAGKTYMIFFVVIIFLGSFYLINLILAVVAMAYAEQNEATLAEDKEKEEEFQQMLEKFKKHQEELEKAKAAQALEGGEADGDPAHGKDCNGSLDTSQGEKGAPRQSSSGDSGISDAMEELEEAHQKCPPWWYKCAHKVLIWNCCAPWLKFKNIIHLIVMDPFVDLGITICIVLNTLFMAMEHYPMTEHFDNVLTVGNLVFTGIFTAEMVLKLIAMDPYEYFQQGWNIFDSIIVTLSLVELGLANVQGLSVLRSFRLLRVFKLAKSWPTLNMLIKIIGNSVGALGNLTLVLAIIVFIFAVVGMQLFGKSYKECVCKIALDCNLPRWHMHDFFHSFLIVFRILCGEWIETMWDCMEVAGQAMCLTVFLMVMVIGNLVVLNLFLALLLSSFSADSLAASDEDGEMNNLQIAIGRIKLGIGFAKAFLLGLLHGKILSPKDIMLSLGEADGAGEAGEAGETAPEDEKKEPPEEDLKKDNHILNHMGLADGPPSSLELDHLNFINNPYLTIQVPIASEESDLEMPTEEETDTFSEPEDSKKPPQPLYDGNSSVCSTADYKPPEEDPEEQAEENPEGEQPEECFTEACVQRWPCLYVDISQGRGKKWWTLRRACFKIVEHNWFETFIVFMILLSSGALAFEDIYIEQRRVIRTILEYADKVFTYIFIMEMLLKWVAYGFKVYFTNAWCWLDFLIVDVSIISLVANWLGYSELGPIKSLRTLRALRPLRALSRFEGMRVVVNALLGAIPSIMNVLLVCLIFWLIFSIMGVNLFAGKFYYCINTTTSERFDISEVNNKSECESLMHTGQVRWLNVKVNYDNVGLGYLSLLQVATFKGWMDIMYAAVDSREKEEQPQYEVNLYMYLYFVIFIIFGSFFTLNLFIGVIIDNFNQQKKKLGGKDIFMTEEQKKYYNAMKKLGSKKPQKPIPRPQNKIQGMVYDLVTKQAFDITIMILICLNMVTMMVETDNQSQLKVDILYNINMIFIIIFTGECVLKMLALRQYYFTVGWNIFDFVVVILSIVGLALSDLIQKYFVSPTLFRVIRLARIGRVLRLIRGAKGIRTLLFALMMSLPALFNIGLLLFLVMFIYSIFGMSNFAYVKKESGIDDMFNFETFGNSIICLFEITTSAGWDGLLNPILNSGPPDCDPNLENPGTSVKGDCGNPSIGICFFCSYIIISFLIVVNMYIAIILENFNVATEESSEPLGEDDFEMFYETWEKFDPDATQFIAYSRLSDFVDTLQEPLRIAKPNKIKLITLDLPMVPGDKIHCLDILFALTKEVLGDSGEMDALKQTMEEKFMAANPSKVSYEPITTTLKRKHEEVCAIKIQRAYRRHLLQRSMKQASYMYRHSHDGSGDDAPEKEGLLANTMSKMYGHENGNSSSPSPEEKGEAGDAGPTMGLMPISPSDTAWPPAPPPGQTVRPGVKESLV

Assays:
hNav1.5 = hNav1.5 (Homo sapiens, UniProt Q14524); conditions: cited from earlier work
hNav1.4 = hNav1.4 (Homo sapiens, UniProt P35499); conditions: cited from earlier work

DCLGAFRKCIPDNDKCCRPNLVCSRLHRWCKYVF [GpTx-1]
Selectivity for hNav1.7 vs hNav1.5 (hNav1.5): 1,000 fold
Selectivity for hNav1.7 vs hNav1.4 (hNav1.4): 20 fold
